Counter-ions that a name gives are not always drawn.
How the values were obtained:
5-HT7 receptor [1] = target: T1, 5-HT7 receptor (Homo sapiens, UniProt P34969); experiment: 5-HT7 receptor binding assay (Cerep)
T1 construct: purchased Cerep

Sequences of proteins named here, by UniProt entry; tags and fusion partners are left off. A change or cut given only in a name is not applied to a line headed by its entry.
UniProt P34969, whole entry: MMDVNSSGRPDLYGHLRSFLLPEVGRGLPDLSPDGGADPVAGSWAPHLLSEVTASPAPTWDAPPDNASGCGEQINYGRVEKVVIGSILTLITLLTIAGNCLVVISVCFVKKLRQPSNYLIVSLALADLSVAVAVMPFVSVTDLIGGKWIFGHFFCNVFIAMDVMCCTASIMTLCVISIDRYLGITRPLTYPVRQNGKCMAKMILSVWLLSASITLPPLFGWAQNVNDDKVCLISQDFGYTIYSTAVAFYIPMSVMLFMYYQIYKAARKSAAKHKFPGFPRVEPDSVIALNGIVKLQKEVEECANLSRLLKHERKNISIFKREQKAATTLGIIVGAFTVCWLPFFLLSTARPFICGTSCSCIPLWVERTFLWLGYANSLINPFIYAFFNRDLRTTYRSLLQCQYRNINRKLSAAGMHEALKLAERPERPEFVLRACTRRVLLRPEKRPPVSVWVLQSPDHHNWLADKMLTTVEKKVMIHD
UniProt P28565: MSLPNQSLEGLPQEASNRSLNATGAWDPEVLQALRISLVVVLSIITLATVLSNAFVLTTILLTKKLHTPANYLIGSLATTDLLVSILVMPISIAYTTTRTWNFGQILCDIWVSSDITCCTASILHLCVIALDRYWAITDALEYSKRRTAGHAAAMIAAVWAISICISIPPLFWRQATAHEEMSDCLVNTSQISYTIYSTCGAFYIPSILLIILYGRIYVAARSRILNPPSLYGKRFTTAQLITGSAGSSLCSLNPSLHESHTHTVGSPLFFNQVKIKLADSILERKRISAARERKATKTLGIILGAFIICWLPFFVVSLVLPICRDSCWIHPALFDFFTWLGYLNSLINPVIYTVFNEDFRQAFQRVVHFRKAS

5-HT7 receptor [2] = target: T1, 5-HT7 receptor; experiment: 5-HT7 compound efficacy (agonist EC50), cyclic-AMP; format: cell-based
5-HT1d receptor [3] = target: T2, 5-HT1d receptor (Rattus norvegicus, UniProt P28565); experiment: 5-HT1d compound efficacy (agonist EC50), impedance; format: cell-based
T2 construct: purchased Cerep

5-HT1d receptor [4] = target: T2, 5-HT1d receptor; experiment: 5-HT1d receptor binding assay (Cerep)

SMILES: CCCN(CCC)[C@@H]1CCc2cccc(O)c2C1 [R-(+)-DPAT, R(+)-8-Hydroxy-2-(dipropylamino)tetralin hydrobromide]
- Ki (5-HT7 receptor [1]): 5.1 nM
- EC50 (5-HT7 receptor [2]): 1200 nM
- EC50 (5-HT1d receptor [3]): 14 nM
- Ki (5-HT1d receptor [4]): 67 nM

SMILES: CCCN(CCC)[C@H]1CCc2cccc(O)c2C1 [S-(−)-DPAT, S(−)-8-Hydroxy-2-(dipropylamino)tetralin hydrobromide]
- Ki (5-HT7 receptor [1]): 29 nM
- EC50 (5-HT7 receptor [2]): 26000 nM
- EC50 (5-HT1d receptor [3]): 420 nM
- Ki (5-HT1d receptor [4]): 860 nM

From patent US8637263B1, “Assay for determination of compounds having anti-emetic activity” (Epiomed Therapeutics, Inc., priority 2010, dated 2014)
